Laboratory results from patent US20140170237A1, “ANTIMICROBIAL COMPOSITIONS CONTAINING MIXTURES OF FATTY AND HYDROXYL CARBOXYLIC ACIDS” (priority 2012, published 2014).

Assay: Cold solubility / 4 C storage of commercial fatty acids and their mixtures
Format: physicochemical
Settings: 1 day, no solvent or surfactant

## CCCCCCCCC(=O)O [C9, nonanoic acid]
  4 C. Storage, physical state: solid or formed crystals; also recorded: Crystallized

“Also recorded” adds a separate entry of the source.
